Reference: US10370371B2, “Substituted pyrimidine Bmi-1 inhibitors” (PTC Therapeutics, Inc., priority 2013, dated 2019)

Test system: Bmi-1 protein
Assay: Sandwich ELISA Assay (Bmi-1 protein level in HT-1080 cells)
Type: cell-based
Details: read-out: ELISA EC50 value for Bmi-1 protein
Description: Cell Seeding and Compound Treatment (Day 1):
HT-1080 cells were seeded at 8000 cells/well (50 μL) in 96-well tissue culture plates. After the cells became adherent (3-4 hours), 2× diluted stocks of test compounds in 50 μL DMEM containing 1% DMSO (final DMSO concentration was 0.5%) were added and the plates were incubated at 37° C. under 5% CO2 for 40-48 hours.
ELISA Plate First Antibody Preparation (Day 2):
The First Antibody (Millipore Mouse, monoclonal to mouse Bmi-1, clone F6, catalog #05-637) diluted to 2 μg/mL in PBS was added (100 μL) to each well of a Nunc MaxiSorp 96-well ELISA plate. The plate was covered with a plate seal and allowed to stand overnight.
Cell Lysate Preparation (Day 3):
Fresh Lysis buffer (1×) was prepared on the day of the assay as follows: 1 mM EDTA, 150 mM NaCl, 0.5% Triton-X 100, 10 mM NaF, 20 mM B-Glycerophosphate, 1 mM DTT (in PBS, pH 7.2-7.4) and HALT protease inhibitor cocktail (1×) (Pierce #78410).
Lysis Buffer (1×, 40 μL) was added to each well and the plate was shaken for 5-10 minutes on an orbital shaker to allow cell lysis, then diluent (1% BSA in PBS in 0.5% NP40) (100 μL) was added to each well. […]
The plate was washed and blotted dry, then a previously prepared TMB substrate (TMB substrate kit, Pierce catalog #34021) (prepared by mixing kit reagents 1:1) (100 μL) was added per well. […] The plates were read at OD450 (experimental) and OD570 (reference).

SMILES: Cc1nc2ccc(F)cc2n1-c1cc(NP(=O)(O)O)nc(Nc2ccc(C(F)(F)F)cc2)n1
- EC50: 10 to 100 nM
